Measurements from patent US12630785B2, “Liquid fabric care compositions comprising capsules” (The Procter & Gamble Company, priority 2020, dated 2026).

Assay: Capsule perfume leakage in liquid fabric enhancer (LFE), headspace SPME GC/MS
Assay type: physicochemical
Conditions: PRM of Perfume 3 out of Capsule Sample D; LFE Composition 1
Experimental: The testing of capsule leakage in liquid compositions (e.g., liquid fabric enhancer/“LFE” compositions and/or heavy-duty liquid/“HDL” detergents) is performed as follows. […] The 1 gram aliquot in the 7 ml vial is then mixed on a stirring plate for 24 h at 500 rpm, thereby ensuring that the capsules are broken by the grinding action of the stir bar against the bottom of the 7 ml vial. Optical microscopy can be used to verify that no more intact capsules remain. In case such capsules are found, the step is to repeated for an additional 24 h, or until all or almost all capsules are broken. Then, the formulation containing broken capsules is introduced into GC vials in a similar manner as for step (a). […] It is to be noted that the capsule sample and the total oil sample are not analyzed on the same day, as there is a need to prepare the total oil sample after the leakage sample has been removed from storage. It is to be noted that the capsule sample and the total oil sample are not analyzed on the same day, as there is a need to prepare the total oil sample after the capsule sample has been removed from storage. […] After equilibrating, the samples are analyzed by GC/MS. […] The perfume composition is analyzed by fast GC/MS in full scan mode. […] At the end of the storage period, samples of each product composition are analyzed for perfume leakage out of the capsule using headspace analysis. […]

Leakage (as %) after 1 week at 35° C.: 7%
Substance: Pinyl iso-butyrate alpha
